Measured values taken from paper PMC10907494, “Applications of biaryl cyclization in the synthesis of cyclic enkephalin analogs with a highly restricted flexibility” (Amino Acids, 2024).

The chains behind the UniProt entries cited, without tags or fusion partners.
UniProt P33535, whole entry: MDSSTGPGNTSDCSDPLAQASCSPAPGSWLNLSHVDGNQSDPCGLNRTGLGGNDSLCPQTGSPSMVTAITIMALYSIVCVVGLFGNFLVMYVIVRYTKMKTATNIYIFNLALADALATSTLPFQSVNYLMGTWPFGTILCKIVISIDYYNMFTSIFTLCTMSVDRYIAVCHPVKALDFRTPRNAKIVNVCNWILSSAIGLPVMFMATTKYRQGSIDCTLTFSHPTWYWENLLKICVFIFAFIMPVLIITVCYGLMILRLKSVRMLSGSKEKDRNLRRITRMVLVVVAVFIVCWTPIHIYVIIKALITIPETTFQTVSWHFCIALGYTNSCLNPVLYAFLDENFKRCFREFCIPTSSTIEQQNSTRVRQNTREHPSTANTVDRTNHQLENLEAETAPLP

Molecular target: μ-opioid receptor (MOR) (Rattus norvegicus, UniProt P33535)
Assay: biochemical
Description: The binding affinity of cyclic and linear enkephalin analogs for μ-opioid receptor (MOR) was determined in competitive radioligand binding assays using membrane preparations from rat brain homogenates. The homogenates were obtained as described previously (Matalińska et al. [2020]). The membrane preparations were incubated at 25 °C for 60 min in the presence of 1.0 nM [^3H]DAMGO (obtained from PerkinElmer, USA) and the set of concentrations of the assayed compound proper for a particular compound and type of determination (screening or a full-displacement curve).
For screening purposes, we performed the experiments with the following concentrations of the compounds tested: 30 μM, 10 μM, and 3 μM. For full-displacement curves, 10 concentrations ranging either from 0.03 nM to 1 μM or from 300 nM to 30 μM were used. The range was chosen for the single compounds in a manner such that the expected IC50 would fall in the middle of the range. In the case of several experiments, only five concentrations were used (they are marked in the results table).
Non-specific binding was measured in the presence of 10 μM naloxone. […] Radioactivity was measured in a scintillation counter MicroBeta LS, Trilux (PerkinElmer, USA). Displacement curves were drawn and the mean IC50 values were determined with SEMs (GraphPad Prism v. 5.0, San Diego, CA).

## CC(C)C[C@H](NC(=O)[C@H](Cc1ccccc1)NC(=O)CNC(=O)CNC(=O)[C@@H](N)Cc1ccc(O)cc1)C(N)=O [[Leu^5]enk-NH2, H-Tyr-Gly-Gly-Phe-Leu-NH2, reference compound]
  IC50: 6.1 ± 1.4 nM
